Among the data in PubChem BioAssay AID581 (PCMD, 2007) are inhibition values, retold here.

By UniProt entry, the sequences of proteins in these tests, tags left out. Where a name states a change or a piece, a line headed by the entry shows the natural chain unless it says otherwise.
UniProt P08311: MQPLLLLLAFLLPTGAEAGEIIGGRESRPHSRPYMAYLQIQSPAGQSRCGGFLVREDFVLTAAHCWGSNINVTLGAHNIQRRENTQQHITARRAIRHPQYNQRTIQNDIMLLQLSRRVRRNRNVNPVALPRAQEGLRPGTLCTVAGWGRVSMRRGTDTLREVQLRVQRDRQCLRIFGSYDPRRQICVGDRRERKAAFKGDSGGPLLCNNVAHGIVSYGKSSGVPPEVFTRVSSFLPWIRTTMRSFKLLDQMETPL

SMILES strings stand for the structures. Only a part is listed here, and it is no random draw. Calls of active or inactive are those of the source.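 The calls were made as follows: active = inhibition above 20% in each of the two mixture wells holding the compound; inactive = inhibition of 20% or less in either well.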

The experiment has as its target Cathepsin G (Homo sapiens) (UniProt P08311). The experiment is described as follows: blockers of neutrophil cathepsin G protease – biochemical, pooled compound mixtures, AMC fluorescence, primary screen (AID 581).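 Also: 0% = enzyme control without mixture and 100% = blank lacking enzyme.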 The settings on record: purified enzyme, AMC-tetrapeptide fluorescence, stronger effect = higher value, screened at 5 µM (by protocol).
As usually defined, the inhibition is the drop in the measured response relative to a control, in per cent. Consider `O=C(OC1CN2CCC1CC2)C12CC3CC(CC(C3)C1)C2` (stereo not given), for which the inhibition was inactive: -2.34%.
As for `COP1(=S)c2c(C)nn(CCC#N)c2N=C(c2ccc(F)cc2)N1C` (stereo not given), the figure is inactive: 9.21%.
As for `O=C(COc1ccccc1)OC1CN2CCC1CC2` (stereo not given), the figure is inactive: 9.91%; as for `O=P1(Nc2ncccn2)COc2ccccc2OC1`, inactive: 12.2%; as for `Cc1ccc(OCC(=O)OC2CN3CCC2CC3)cc1` (stereo not given), inactive: 6.45%.
On to `O=P1(Nc2ccc(Br)cn2)COc2ccccc2OC1`, for which the inhibition was inactive: -32.9%.
As for `Cc1nn(-c2ccccc2)c2c1P(=O)(N1CCOCC1)N(C)C(c1ccccc1)=N2` (stereo not given), the figure is inactive: 1.25%; as for `O=P1(Nc2ccccn2)COc2ccccc2OC1`, inactive: 10.2%.
`Clc1n[nH]nc1-c1nn[nH][15n]1`: the inhibition was inactive: 6.87%.
As for `Cc1cccc(OCC(=O)OC2CN3CCC2CC3)c1` (stereo not given), the figure is inactive: 16.1%; as for `CCOP1(=S)c2c(C)nn(CCC#N)c2N=C(c2ccc(F)cc2)N1C` (stereo not given), inactive: 0.65%.
Regarding `O=P(Nc1nccs1)(c1ccccc1)c1nc2ccccc2s1` (stereo not given), the inhibition is inactive: 24%.
Regarding `CCOP1(=S)c2c(C)nn(CCC#N)c2N=C(c2ccccc2F)N1C` (stereo not given), the inhibition was inactive: -13.6%.
As for `COC(=O)c1cc2c(s1)N=C(c1ccccc1)N(C)P2(=O)N1CCOCC1` (stereo not given), the figure is inactive: 12.9%; as for `O=P1(Nc2nc3ccc(Cl)cc3s2)COc2ccccc2O1` (stereo not given), inactive: 4.07%; as for `O=P(Nc1nccs1)(c1ccccc1)c1ccccc1`, inactive: -1.94%.
To `c1nnnn1CCn1cnnn1` belongs inactive: -1.98%; to `O=C(OC1CN2CCC1CC2)c1cccc(Cl)c1` (stereo not given), inactive: -5.55%.
As to `CCc1nc2c(n1)c1c(non1O)c1c2no[n+]1[O-]`, the inhibition is inactive: -2.55%.
To `Cc1c2non([O-])c-2c(C)[n+](=O)[n+]1[O-]` belongs inactive: -0.89%.
